Results: patent US11096924B2, “Combination therapies using immuno-dash inhibitors and PGE2 antagonists” (Trustees of Tufts College, priority 2016, dated 2021)

Legend:
MV4; 11 Luc-Neo = assay: Pyroptosis in MV4;11 Luc-Neo cells; assay type: cell-based; details: Homo sapiens
THP-1 sgGFP = assay: Pyroptosis in THP-1 sgGFP cells; assay type: cell-based; details: Homo sapiens
RAW 264.7 WT cells = assay: Pyroptosis in RAW 264.7 WT cells; assay type: cell-based; details: Mus musculus, RAW264.7
[1] = system: RAW 264.7, MV4; 11, THP-1 cells; assay: Pyroptosis inducing activity in vitro (Example 7); assay type: cell-based; details: bound stated
[2] = system: MB49 murine urothelial carcinoma cell line; assay: MB49 efficacy studies in tumor bearing mice; assay type: in vivo; details: MB49 mouse tumor model, truncated dosing schedules
macrophages = assay: Pyroptosis of macrophages in cell culture; assay type: cell-based; details: Macrophage; Example 2 table; unit inferred
[3] = phase I clinical trials in humans; cited from earlier work

Q: What does the source list for `N[C@H](C(=O)N1CCC[C@H]1B(O)O)C12CC3CC(CC(O)(C3)C1)C2` (relative stereo) [ARI-3102A]?
A: IC50 (MV4; 11 Luc-Neo): 571 nM; IC50 (THP-1 sgGFP): 376 nM; IC50 (RAW 264.7 WT cells): 173 nM

Q: For `N[C@H](C(=O)N1CCC[C@H]1B(O)O)C12CC3CC(CC(Cl)(C3)C1)C2` (relative stereo) [ARI-3102C], which IC50 [1] is on record?
A: < 10 nM

Q: What about the IC50 (MV4; 11 Luc-Neo) of the same compound?
A: 1 nM

Q: And the IC50 (THP-1 sgGFP)?
A: 7 nM

Q: What about the IC50 (RAW 264.7 WT cells) of the same compound?
A: 3 nM

Q: Which IC50 [1] does the source give for `CC1([C@H](N)C(=O)N2CCC[C@H]2B(O)O)CCCCC1` (relative stereo) [ARI-4175CH] here?
A: < 10 nM

Q: What about the IC50 (MV4; 11 Luc-Neo) of the same compound?
A: 0.2 nM

Q: What about the IC50 (THP-1 sgGFP) of the same compound?
A: 0.9 nM

Q: Which antitumor activity [2] does the source give for `CC(C)(F)[C@H](N)C(=O)N1CCC[C@H]1B(O)O` (relative stereo) [ARI-4268] here?
A: displays antitumor activity

Q: Which IC50 [1] does the source give for `N[C@H](C(=O)N1CCC[C@H]1B(O)O)C12CC3CC(CC(C3)C1)C2` (relative stereo) [ARI-5544, Gly(1-adamantyl)-boroPro] here?
A: < 10 nM

Q: What about the IC50 (MV4; 11 Luc-Neo) of the same compound?
A: < 0.1 nM

Q: And the IC50 (THP-1 sgGFP)?
A: 0.2 nM

Q: And the IC50 (RAW 264.7 WT cells)?
A: 2 nM

Q: Which IC50 (macrophages) does the source give for `CC(C)(C)[C@H](N)C(=O)N1CCC[C@H]1B(O)O` [ARI-4175] here?
A: 14 nM

Q: And the IC50 [1]?
A: < 10 nM

Q: What about the IC50 (RAW 264.7 WT cells) of the same compound?
A: 14 nM

Q: For `CC(C)[C@H](N)C(=O)N1CCC[C@H]1B(O)O` [Val-boroPro, Valine-boroProline], which tolerability [3] is on record?
A: appeared to be well tolerated
